The results in this text go back to patent US20240166604A1, “HYDROXYTYROSOL NICOTINAMIDE EUTECTIC CRYSTAL, AND PREPARATION METHOD THEREFOR AND COMPOSITION THEREOF” (COCRYSTAL TECHNOLOGY (JIAXING) CO., LTD., priority 2021, published 2024).

Where only a bound is given, the exact number is not on record here.

The series can be described thus: Chemical stability at 40° C./75% RH, hydroxytyrosol content by HPLC. Type of series: physicochemical. Conditions: double-layer polyethylene bags, 30 d, % of initial content. Here is the method: The chemical stabilities of hydroxytyrosol, hydroxytyrosol embedding powder, co-crystal of hydroxytyrosol and nicotinamide obtained in Example 1, and the compositions obtained in Example 4 and Example 5 at 40° C./75% RH were compared.
An appropriate amount of powder sample was put in an accelerated stability chamber at 40° C./75% RH with the packaging condition of double-layer polyethylene bags, and the sample was taken at 0 d, 14 d, and 30 d. The content of hydroxytyrosol was determined by high performance liquid chromatography (the content was calculated by external standard method).
The conditions for the liquid chromatography were as follows: • Mobile phase: phase A: 0.1% aqueous trifluoroacetic acid solution, phase B: acetonitrile; flow rate: 1 mL/min; detection wavelength: 280 nm; column: C18 Plus 4.6×150 mm×5 μm; • Gradient: • 0-10 min—A:B (95:5); • 10.1-14 min—A:B (50:50); • 14.0-17 min—A:B (95:5).

In the case of “co-crystal of hydroxytyrosol and nicotinamide [Example 1]”, the “content of hydroxytyrosol, Day 30” value was found to be 100.6%. For the setting “listed as co-crystal of hydroxytyrosol and nicotinamide”, the “content of hydroxytyrosol, Day 30” value is reported as not below 99%.
